Earlier results in patent US20110319467A1, “Absorption Enhancement of Statins and Omega Fatty Acids” (priority 2010, published 2011).

Conditions: single emulsifier

For “tocopheryl polyethylene glycol succinate”, the HLB value is listed as “about 13”.
